Apparent affinities of Ab-95 variants for a coronavirus HR2 peptide

The measurements come from Engelhart et al. 2022 (doi:10.1038/s41597-022-01779-4) through the FLAb antibody collection.

Target peptide (SARS-CoV-2 spike, HR2 region): PDVDLGDISGINAS

The variants keep the heavy chain, the linker and the frameworks of Ab-95 (scFv order VH, a 15-residue (Gly4Ser)3 linker, VL).
VH: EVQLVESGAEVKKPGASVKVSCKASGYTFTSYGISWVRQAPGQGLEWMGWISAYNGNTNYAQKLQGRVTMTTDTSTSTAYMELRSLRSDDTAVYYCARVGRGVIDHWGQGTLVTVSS
VL: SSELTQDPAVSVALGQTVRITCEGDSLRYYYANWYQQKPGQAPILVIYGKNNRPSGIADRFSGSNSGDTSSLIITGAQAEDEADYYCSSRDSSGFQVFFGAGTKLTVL

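The starting antibody came from a phage panning campaign against this peptide. In library AAYL52, one, two or three CDR residues were substituted; doubles and triples were drawn at random. The assay is AlphaSeq: two haploid yeast populations carry antibody and antigen on their surface. The frequency of each diploid, read from paired DNA barcodes, reflects how well the two displayed proteins bind. Each replicate has its own calibration line, from reference interactions of the BCL2 family. Each pool was mated in three replicate cultures.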

Changes read parent residue, position, new residue, counted from the first residue of the VL shown.
Each Kd is an estimate from the mating assay, the geometric mean of the replicates in which the pair was seen; lower is stronger.
Where no diploid with the target was found in any replicate, the entry reads "no signal": below detection, most likely a poor binder, though not proof of it.
Nonspecific signal, from three strains lacking the peptide, appeared in 28% of pairings of library AAYL52, centred on 8.2 µM (5% of these signals below 800 nM); values are not corrected for it.
Parent in this assay: reference entry 200 nM, copy in this library 180 nM.

changes	Kd	detected
G24I+N51K+G94P	4.2 µM	1 of 3
G24L+K50R+V97A	17 µM	1 of 3
Y30F+G49C+N51M	420 nM	1 of 3
Y29V+G49Q+V97T	12 µM	3 of 3
S26F+L27P+Y29H	3.2 µM	3 of 3
N33R+R53M+S93Y	81 µM	2 of 3
N51M+R90M+S92Q	no signal	0 of 3
G24W+Y29C+N52T	16 µM	1 of 3
Y29K+K50A+D91L	430 nM	3 of 3
N51W+S55H+F98Q	1.4 µM	3 of 3
L27K+N33C+R53I	no signal	0 of 3
S88V+S92E+V97L	660 nM	3 of 3
E23Q+Y30F+G94I	930 nM	1 of 3
S26R+N51P+R53C	85 µM	1 of 3
D25R+L27N+R53S	4.7 µM	2 of 3
G24H+R53Y+S55R	no signal	0 of 3
N33G+G94C+V97R	no signal	0 of 3
S26M+Y29G+K50P	130 nM	3 of 3
S26Y+S55I+Q96D	1.8 µM	3 of 3
G24C+R28N+D91T	1.1 µM	3 of 3
N33A+N52D+S93E	4.1 µM	3 of 3
R28V+N51V+F95L	14 µM	3 of 3
Y30P+N33Q+S93R	2.2 µM	3 of 3
G24K+L27V+F98G	9.1 µM	2 of 3
E23L+R28W+S93A	4.9 µM	2 of 3
Y31W+R90W+D91A	8.5 µM	3 of 3
E23H+L27Q+Y29D	360 nM	3 of 3
R28P+S55I+Q96L	460 nM	3 of 3
Y30N+N52Y+Q96W	73 nM	3 of 3
R90N+S92C	no signal	0 of 3
N33Q+G94T+F98M	no signal	0 of 3
Y30D+K50G+Q96R	390 nM	3 of 3
D25E+S26H+S55V	110 nM	3 of 3
E23M+S89I+G94Y	940 nM	3 of 3
Y31R+R53M+R90G	4.3 µM	3 of 3
E23A+R28D+R90W	no signal	0 of 3
E23W+A32V+D91A	3.6 µM	3 of 3
Y30F+N52L+F95S	690 nM	3 of 3
G49S+R53M+S93V	no signal	0 of 3
N33S+F95D+V97I	50 µM	1 of 3
E23R+S93Y+F95T	120 nM	3 of 3
Y29M+Y31L+N51K	40 µM	2 of 3
N33I+S92K	33 nM	3 of 3
R53W+F95A	61 µM	1 of 3
D25K+A32W+V97C	5.9 µM	1 of 3
E23N+D25I+N52Y	8.9 µM	3 of 3
D25T+L27P+S55T	890 nM	3 of 3
R90N+D91P	15 µM	2 of 3
E23G+G49D+D91F	6.9 µM	1 of 3
N51T+R53C+F95V	13 µM	2 of 3
S26E+S93K+F98I	6.9 µM	3 of 3
L27W+G94T	no signal	0 of 3
Y31G+P54W+D91I	480 nM	3 of 3
Y29L+N52I+S55P	760 nM	3 of 3
S26F+S88Y+F95L	no signal	0 of 3
G24S+V97S	580 nM	3 of 3
N33G+G49T+S88F	no signal	0 of 3
K50M+S88M+F95P	8.0 µM	2 of 3
K50V+N52F	9.4 µM	2 of 3
G49S+K50V+S93G	1.8 µM	2 of 3
R90I+D91N+Q96L	no signal	0 of 3
R90T+S92P+V97Y	no signal	0 of 3
L27H+R90K+G94T	21 µM	1 of 3
N33R+N52M+Q96Y	12 µM	1 of 3
Y30D+R53H+S55G	1.0 µM	3 of 3
Y30W+R90Q	no signal	0 of 3

The last 6 entries again:

changes	Kd	detected
R90I+D91N+Q96L	no signal	0 of 3
R90T+S92P+V97Y	no signal	0 of 3
L27H+R90K+G94T	21 µM	1 of 3
N33R+N52M+Q96Y	12 µM	1 of 3
Y30D+R53H+S55G	1.0 µM	3 of 3
Y30W+R90Q	no signal	0 of 3